The record followed here is ChEMBL document CHEMBL1944597, “Synthesis and evaluation of non-basic inhibitors of urokinase-type plasminogen activator (uPA)” (Bioorg Med Chem, 2012).

Structures are written as SMILES.

The species named for this test is Homo sapiens. In words: Selectivity ratio of IC50 for recombinant tPA to IC50 for human uPA.

As for `N=C(N)c1ccc2cc(C(=O)Nc3ccc(CN)cc3)ccc2c1`, the Ratio IC50 is > 50.
